Reference: ChEMBL document CHEMBL1127843, “2-(3,4-Dichlorophenyl)-N-methyl-N-[(1S)-1-(3-isothiocyanatophenyl)-2-(1-pyrrolidinyl)ethyl]acetamide: an opioid receptor affinity label that produces selective and long-lasting kappa antagonism in mice” (J Med Chem, 1994)

By UniProt entry, the sequences of proteins in these tests, tags left out.
UniProt P97266, whole entry, looked up: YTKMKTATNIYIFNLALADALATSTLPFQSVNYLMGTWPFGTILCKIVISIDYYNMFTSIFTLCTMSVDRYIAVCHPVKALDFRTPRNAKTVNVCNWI

Target: Mu-type opioid receptor (Cavia porcellus, UniProt P97266)
Experiment: Binding affinity of compound towards mu receptor by using radioligand [3H]DAMG0 on guinea pig brain membranes

## CN(C(=O)Cc1ccc(Cl)c(Cl)c1)[C@H](CN1CCCC1)c1cccc(N=C=S)c1
  IC50: 1800 nM
